Data taken from patent publication US4780313A (Takeda Chemical Industries, Ltd., priority 1985, dated 1988).

Columns and labels:
[1] = Minimum lethal dose of IL-2 (S.C.) in mouse; format: in vivo; settings: 1 mg=3.5×10^4 units
[2] = tested on: Meth-A fibrosarcoma cells (Meth-A tumor cells); assay: Antitumor activity, subcutaneous administration, Meth-A tumor-bearing mice (Examples 1 and 4); format: in vivo, female BALB/c mice; settings: day 21
Description: Meth-A fibrosarcoma cells (Meth-A tumor cells) (1×10^6 cells) were transplanted into each female BALB/c mice (weighing about 20 g) subcutaneously in the flank using a syringe. Seven days after tumor transplantation, mice in which tumor was larger than a certain defined size were chosen and grouped and administration of the test agent was started. The agent was administered subcutaneously in the opposite flank relative to the tumor transplantation site once daily for 10 consecutive days. Each ingredient of the test agent was dissolved in physiological saline (solvent) supplemented in a form of a single preparation with 5% of normal mouse serum in a concentration such that the dose of the solution amounted to 0.1 ml/20 g of mouse body weight. The antitumor effect was evaluated by measuring the tumor weight in each mouse 21 days after tumor transplantation, determining the average tumor weight for each group and calculating the tumor weight ratio (T/C %) between the dosed group (T; 5 animals per group) and the untreated control group (C; 5 to 10 animals per group). The daily dose of each ingredients was expressed in terms of the ingredient weight (mcg) per mouse.

Meth-A tumor cells = assay: Antitumor activity, intravenous administration, Meth-A tumor-bearing mice (Examples 2 and 3); format: in vivo, female BALB/c mice; settings: day 21
Description: Meth-A tumor cells (1×10^6 cells) were transplanted into each female BALB/c mice (weighting about 20 g) subcutaneously in the flank with a syringe. Seven days after tumor transplantation, mice in which tumor was larger than a certain defined size were chosen and grouped and administration of the test agent was started. The agent was administered via the caudal vein once daily for 10 consecutive days. Each ingredient of the test agent was dissolved in physiological saline (solvent) in the form of a single preparation supplemental with 5% of normal mouse serum in a concentration such that the dose of the solution amounted to 0.2 ml/20 g of mouse body weight. The antitumor effect was evaluated by measuring the tumor weight in each animal 21 days after tumor transplantation, determining the average tumor weight for each group and calculating the tumor weight ratio (T/C%) between the dosed group (T; 5 animals per group) and the untreated control group (C; 10 animals). […] The daily dose of each ingredient was expressed in terms of the ingredient weight (mcg) per mouse.

Substance: IL-2: genetically engineered IL-2 species employing Escherichia coli DH1/pTF4, prepared per EPC Publication No. 145390
- minimum lethal doses (MLDs) [1]: not less than 10 mg/mouse
- Tumor weight (mg) Mean ± SD ([2]; Experiment I, IL-2 10, TMD-1 0 mcg/mouse/day s.c. x10 days): 2,359 ± 1,064 mg
- Tumor weight (mg) Mean ± SD ([2]; Experiment II, IL-2 10, TMD-1 0 mcg/mouse/day s.c. x10 days): 2,605 ± 709 mg
- Tumor weight (mg) Mean ± SD ([2]; Table 4, IL-2 10 mcg/mouse/day alone s.c. x10 days): 3,072 ± 837 mg
- Tumor weight (mg) Mean ± SD (Meth-A tumor cells; Table 2, IL-2 10, TMD-1 0 mcg/mouse/day i.v. x10 days): 4,368 ± 959 mg
- Tumor weight (mg) Mean ± SD (Meth-A tumor cells; Table 3, IL-2 10, Quinonyl-MDP-66 0 mcg/mouse/day i.v. x10 days): 1,999 ± 709 mg
